Reference: patent publication EP1166781A1, “PROTEASOME INHIBITORS” (KYOWA HAKKO KOGYO CO., LTD., priority 1999, dated 2000)

Molecular target: proteasome (Homo sapiens, UniProt P28074)
Experiment: Proteasome inhibitory activity (Suc-Leu-Leu-Val-Tyr-AMC cleavage, crude enzyme solution from HeLa S3 cell extract)
Settings: crude proteasome fraction (>500K) from HeLa S3 cells; substrate Suc-Leu-Leu-Val-Tyr-AMC; 37°C for one hour; tested form: free

SMILES: CCC(C)C1C(=O)OC1C(=O)NC1CC1CC(NC(=O)C(C)NC(=O)CO)C(=O)OCc1ccccc1 (stereo not shown)
- IC50: 41 nM
